Assay results from patent publication US20260007720A1, “TISSUE REGENERATIVE MULTI-DRUG COCKTAIL AND APPARATUS FOR DELIVERY THEREOF” (priority 2022, published 2026).

Experiments:
amputated P2 bone [1] = test: Single treatment with growth factor cocktails after P2 amputation (micro-CT recovered bone); assay type: in vivo, adult CD-1 mice; conditions: single treatment for 7 days; micro-CT at 98 days post amputation
Protocol: 3D representation of different metrics used to calculate the percentage of recovered bone. Recovered bone is the amount of new bone formed (Lt-LE) compared to the amount of bone removed (La).
Hydrogel Fabrication—For silk hydrogel preparation, the silk solution was diluted to a working concentration of 3% (w/v) using Hanks buffer solution with phenol red (Sigma-Aldrich, St. Louis MO), DMEM (1:10 dilution of stock, Sigma-Aldrich, St. Louis, MO), Glutamax™ (1:100 stock solution, Fischer Scientific, Waltham MA) and dextrose (final concentration at 4.5 mg/mL gel solution, Sigma-Aldrich, St. Louis, MO). The system was then enzymatically cross-linked at the tyrosine side chains using horseradish peroxidase enzyme (HRP) at 5 U/ml (Sigma-Aldrich, St. Louis, MO) with hydrogen peroxide at 0.0067% overall volume. Sodium bicarbonate was added to balance the pH of the hydrogel based on the color of the gel generated by the phenol red present in the supplemented Hank's buffer solution and concentrated DMEM. Silk hydrogels loaded with bioactive compounds are fabricated by mixing the active ingredients with SF prior to gelation to modulate the wound microenvironment. The liquid solution was poured into the silicon sleeve and allowed to gel for one hour at room temperature and stored at 4° C. for no more than 12 hours before attachment to the limb stump. […]

amputated P2 bone [2] = test: Multiple treatments targeting chondrogenesis after P2 amputation; assay type: in vivo, adult CD-1 mice; conditions: 98 days after amputation
Protocol: A) Schematic illustration of the timeline of the experiment. B) Quantification of net-recovered bone after multiple treatment by IGF-1 and BMP2 at 98 days after amputation. C) Representative micro-CT renderings of the bone of C) IGF-1 and D) BMP2 treated groups. The red dashed line represents the amputation plane. Scale bar=250 μm.
Amputation Surgery and Device Attachment and Removal—All experiments were performed under the approval of Tuft's IACUC. All animals were housed in 12-hour light and dark cycles and fed using the recommended feed. Female CD-1 (Charles River Laboratories, Wilmington, MA) and FVB/NJ mice (Jackson Laboratories, Bar Harbor, ME) from 8 to 10 weeks of age were used in the study. Animals were anesthetized with isoflurane administered at 2 to 5% air composition. For single treatment (FIG. 20A), P2 amputation in hindlimb digit 3 was made using a scalpel under a dissection microscope. Immediately after P2 amputation, the dragonskin insert containing silk hydrogel with or without bioactive molecules was then attached to the amputated digit using Skin Tite™ Bioadhesive (Smooth-On, PA). Prior to hydrogel loading, all materials and tools used in the experiment (e.g. surgical tools and device components) were autoclaved to ensure sterility. Devices were attached for various time periods and the amputation digits were then allowed to heal after device removal. […]

B1: bone morphogenetic protein 2 (protein, UniProt P12643 283-396, looked up)
Bone morphogenetic protein 2: QAKHKQRKRLKSSCKRHPLYVDFSDVGWNDWIVAPPGYHAFYCHGECPFPLADHLNSTNHAIVQTLVNSVNSKIPKACCVPTELSAISMLYLDENEKVVLKNYQDMVVEGCGCR
notes: growth factor, 600 ng-2 μg in silk hydrogel
P2 bone elongation (amputated P2 bone [1]): promotes P2 bone elongation
P2 bone elongation (amputated P2 bone [2]): promote P2 bone elongation
